Test results as given in patent US20220033460A1, “IDENTIFICATION AND USE OF T CELL EPITOPES IN DESIGNING DIAGNOSTIC AND THERAPEUTIC APPROACHES FOR COVID-19” (priority 2020, published 2022).

T1: I-Ab (mouse), P14434
T1 chain 1: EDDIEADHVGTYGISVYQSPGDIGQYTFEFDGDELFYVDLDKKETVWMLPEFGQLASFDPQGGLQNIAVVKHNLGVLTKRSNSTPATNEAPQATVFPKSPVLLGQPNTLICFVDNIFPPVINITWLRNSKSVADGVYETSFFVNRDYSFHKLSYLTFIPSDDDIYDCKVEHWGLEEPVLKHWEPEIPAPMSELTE
T1 chain 2: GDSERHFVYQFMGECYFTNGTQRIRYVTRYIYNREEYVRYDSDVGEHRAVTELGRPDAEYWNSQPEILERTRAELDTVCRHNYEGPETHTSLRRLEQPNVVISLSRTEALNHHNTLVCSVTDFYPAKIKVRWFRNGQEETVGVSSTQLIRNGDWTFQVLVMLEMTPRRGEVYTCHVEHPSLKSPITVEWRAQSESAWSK


Molecular target: T1, I-Ab (mouse), P14434
Assay: biochemically tested I-Ab binding affinity (method not told)

| Binder | IC50 [µM] |
| --- | --- |
| IEYAKLYVLSPILAE (modifications not checked) | 0.282 |
| GLVSQLSVLSSITNI (modifications not checked) | 5.28 |
| YDMFNLLLMKPLGIE (modifications not checked) | 6.75 |
| IIKYNRRLAKSIICE (modifications not checked) | 8.39 |
